{"source": "ChEMBL document CHEMBL4000163", "about": "“Pyrazole derived ultra-short antimicrobial peptidomimetics with potent anti-biofilm activity” (Eur J Med Chem, 2017)", "assay_type_in_all_cases": "functional", "conditions_in_all_cases": "read-out: MIC100", "key": {"Staphylococcus aureus [1]": {"test_system": "Staphylococcus aureus", "experiment": "Antibacterial activity against methicillin resistant Staphylococcus aureus CCARM 3090 after 18 to 20 hrs by broth microdilution assay", "procedure,_shortened": "(§1)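 Broth microdilution in 1% peptone: bacteria at 2 × 10⁶ CFU/mL mixed 1:1 with serial 2-fold peptide dilutions, 18-20 h at 37 °C; growth read as absorbance at 600 nm. MIC taken as lowest concentration giving 100% growth inhibition.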"}, "Pseudomonas aeruginosa [2]": {"test_system": "Pseudomonas aeruginosa", "experiment": "Antibacterial activity against multidrug-resistant Pseudomonas aeruginosa CCARM 2109 after 18 to 20 hrs by broth microdilution assay", "procedure,_shortened": "as §1"}, "[3]": {"test_system": "Staphylococcus epidermidis", "experiment": "Antimicrobial activity against Staphylococcus epidermidis KCTC 1917 incubated for 18 to 20 hrs by broth microdilution assay", "procedure,_shortened": "(§2)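 Broth microdilution in 1% peptone. Inoculum was 2 × 10⁶ CFU/mL mixed 1:1 with serial 2-fold peptide dilutions and incubated 18–20 h at 37 °C. Growth was read as absorbance at 600 nm; MIC is the lowest peptide concentration giving 100% growth inhibition.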"}, "Staphylococcus aureus [4]": {"test_system": "Staphylococcus aureus", "experiment": "Antibacterial activity against methicillin resistant Staphylococcus aureus CCARM 3089 after 18 to 20 hrs by broth microdilution assay", "procedure,_shortened": "as §1"}, "Pseudomonas aeruginosa [5]": {"test_system": "Pseudomonas aeruginosa", "experiment": "Antibacterial activity against multidrug-resistant Pseudomonas aeruginosa CCARM 2095 after 18 to 20 hrs by broth microdilution assay", "procedure,_shortened": "as §1"}, "Staphylococcus aureus [6]": {"test_system": "Staphylococcus aureus", "experiment": "Antimicrobial activity against Staphylococcus aureus KCTC 1621 incubated for 18 to 20 hrs by broth microdilution assay", "procedure,_shortened": "as §2"}, "Pseudomonas aeruginosa [7]": {"test_system": "Pseudomonas aeruginosa", "experiment": "Antimicrobial activity against Pseudomonas aeruginosa KCTC 1637 incubated for 18 to 20 hrs by broth microdilution assay", "procedure,_shortened": "as §2"}, "Escherichia coli": {"test_system": "Escherichia coli", "experiment": "Antimicrobial activity against Escherichia coli KCTC 1682 incubated for 18 to 20 hrs by broth microdilution assay", "procedure,_shortened": "as §2"}, "Staphylococcus aureus [8]": {"test_system": "Staphylococcus aureus", "experiment": "Antibacterial activity against methicillin resistant Staphylococcus aureus CCARM 3095 after 18 to 20 hrs by broth microdilution assay", "procedure,_shortened": "as §1"}}, "data": [{"smiles": "CC[C@H](C)[C@H](NC(=O)CN)C(=O)NCC(=O)N[C@@H](C)C(=O)N[C@H](C(=O)N[C@@H](CC(C)C)C(=O)N[C@@H](CCCCN)C(=O)N[C@H](C(=O)N[C@@H](CC(C)C)C(=O)N[C@H](C(=O)N[C@H](C(=O)NCC(=O)N[C@@H](CC(C)C)C(=O)N1CCC[C@H]1C(=O)N[C@@H](C)C(=O)N[C@@H](CC(C)C)C(=O)N[C@H](C(=O)N[C@@H](CO)C(=O)N[C@@H](Cc1c[nH]c2ccccc12)C(=O)N[C@H](C(=O)N[C@@H](CCCCN)C(=O)N[C@@H](CCCNC(=N)N)C(=O)N[C@@H](CCCCN)C(=O)N[C@@H](CCCNC(=N)N)C(=O)N[C@@H](CCC(N)=O)C(=O)N[C@@H](CCC(N)=O)C(N)=O)[C@@H](C)CC)[C@@H](C)CC)[C@@H](C)O)[C@@H](C)O)C(C)C)C(C)C", "note": "[MELITTIN]", "values": [{"measurement": "MIC", "setting": "Staphylococcus aureus [1]", "result": 16, "unit": "mg/L"}, {"measurement": "MIC", "setting": "Pseudomonas aeruginosa [2]", "result": 32, "unit": "mg/L"}, {"measurement": "MIC", "setting": "[3]", "result": 32, "unit": "mg/L"}, {"measurement": "MIC", "setting": "Staphylococcus aureus [4]", "result": 16, "unit": "mg/L"}, {"measurement": "MIC", "setting": "Pseudomonas aeruginosa [5]", "result": 32, "unit": "mg/L"}, {"measurement": "MIC", "setting": "Staphylococcus aureus [6]", "result": 16, "unit": "mg/L"}, {"measurement": "MIC", "setting": "Pseudomonas aeruginosa [7]", "result": 32, "unit": "mg/L"}, {"measurement": "MIC", "setting": "Escherichia coli", "result": 16, "unit": "mg/L"}, {"measurement": "MIC", "setting": "Staphylococcus aureus [8]", "result": 16, "unit": "mg/L"}]}]}
